# Only a part is listed here, and it is no random draw. The source made the active and inactive calls.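 How the source made its calls: active means aptamer displacement above 40%, near three times the noise of non-fluorescent compounds, on plates passing quality checks; inactive means the rest.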
# Sequences of proteins named here, by UniProt entry; tags and fusion partners are left off.
# UniProt P25098, whole entry: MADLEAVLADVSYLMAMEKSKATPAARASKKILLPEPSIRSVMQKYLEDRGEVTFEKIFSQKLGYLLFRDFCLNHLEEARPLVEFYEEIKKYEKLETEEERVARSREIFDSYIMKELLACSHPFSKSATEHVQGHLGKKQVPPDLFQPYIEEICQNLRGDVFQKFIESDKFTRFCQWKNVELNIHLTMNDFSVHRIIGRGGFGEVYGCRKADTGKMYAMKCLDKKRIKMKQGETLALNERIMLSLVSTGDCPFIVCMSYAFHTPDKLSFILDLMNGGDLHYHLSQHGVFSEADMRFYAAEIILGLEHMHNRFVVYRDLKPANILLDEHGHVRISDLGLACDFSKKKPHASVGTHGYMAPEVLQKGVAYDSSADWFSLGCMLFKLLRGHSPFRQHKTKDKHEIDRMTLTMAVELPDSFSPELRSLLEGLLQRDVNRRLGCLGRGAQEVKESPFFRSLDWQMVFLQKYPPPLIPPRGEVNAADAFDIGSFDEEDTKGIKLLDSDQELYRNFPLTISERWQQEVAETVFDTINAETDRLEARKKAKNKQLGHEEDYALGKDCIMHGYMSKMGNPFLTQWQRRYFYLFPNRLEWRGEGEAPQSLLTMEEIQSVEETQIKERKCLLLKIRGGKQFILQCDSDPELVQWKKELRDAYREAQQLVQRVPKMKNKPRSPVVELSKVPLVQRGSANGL
# Target: Beta-adrenergic receptor kinase 1 (Homo sapiens) (UniProt P25098)
# Assay: GRK2 aptamer-displacing inhibitors, retest, confirmation, biochemical, cherry pick 1, bead flow cytometry (AID 504451);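 further: negative values mostly reflect intrinsic compound fluorescence rather than true enhancement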
# Conditions: bead-bound GRK2, FAM-aptamer displacement, at 10 µM, stronger effect = higher value
row,SMILES,aptamer displacement
1,CC(C)(C)OC(=O)N1CCC(N(C(=O)c2ccccc2)c2ccc(Cl)cc2)CC1,inactive: 3.45%
